Earlier results, collected in PMC3720659, “Integrated Analysis of Drug-Induced Gene Expression Profiles Predicts Novel hERG Inhibitors” (PLoS ONE, 2013).

Legend:
hERG current = conditions: cited from earlier work
[1] = drug on LQT Drug List; the Cell Line (HL60, MCF7, PC3) is the cell line of the expression profile; cited from earlier work

## COc1cc(NC(C)CCCN)c2ncccc2c1 (centres unmarked) [primaquine]
hERG current
  Annotation (hERG Active / Inactive): Inactive

## CC(N)C(O)c1ccccc1 (centres unmarked) [phenylpropanolamine]
[1]
  Annotation (LQT Drug): LQT Drug
